Source: EP4847044A1, “PHARMACEUTICAL COMPOSITION COMPRISING PRMT5 INHIBITOR AND CHEMOTHERAPEUTIC AGENT” (dated 2026)

Experiments:
[1] = tested on: NCI-H292 MTAP (-/-) deleted cells; experiment: Cell proliferation inhibition (CTG luminescence, 144 hours), single agents and combination test, CI by Calcusyn; conditions: single agent
[2] = tested on: LU99 MTAP (-/-) deleted cells; experiment: as above; conditions: single agent

CC(=O)O[C@@]12CO[C@@H]1C[C@H](O)[C@@]1(C)C(=O)[C@H](O)C3=C(C)[C@@H](OC(=O)[C@H](O)[C@@H](NC(=O)OC(C)(C)C)c4ccccc4)C[C@@](O)([C@@H](OC(=O)c4ccccc4)[C@H]21)C3(C)C
IC20 [1]: 0.63 nM
IC20 [2]: 1.28 nM
Max Inh% ([2]; maximum inhibition rate): 100%
